Reference: patent US10392346B2, “Kinase inhibitors” (Topivert Pharma Limited, priority 2014, dated 2019)

Tested on: non-mutant kinases
Assay: KinomeScan selectivity scores
Type: binding
Conditions: 50 nM
Description: These assays may be conducted by DiscoverX (formerly Ambit; San Diego, Calif.).

## COc1cc(Nc2cc(Oc3ccc(NC(=O)Nc4cc(C(C)(C)C)cc(NS(C)(=O)=O)c4OC)c4ccccc34)ccn2)ccc1P(C)(=O)O [Example 44, (4-((4-((4-(3-(5-(tert-Butyl)-2-methoxy-3-(methylsulfonamido)phenyl)ureido)naphthalen-1-yl)oxy)pyridin-2-yl)amino)-2-methoxyphenyl)(methyl)phosphinic acid]
Kinases with % Ctrl <1 / kinases tested
  KinomeScan Selectivity Score S(1): 0.002
Kinases with % Ctrl <10 / kinases tested
  KinomeScan Selectivity Score S(10): 0.074
